Experimental data reported in PubChem BioAssay AID493131 (Broad Institute, 2011).
The entries are a selection whose mix differs from that of the whole data set. Some salts or complexes appear as unconnected parts, following the source record. Calls of active or inactive are those of the source.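 How the source made its calls: active means mean activation above about 17%, with every replicate also reaching it (limit read from the data, passing the limit was not always enough); inconclusive means only one of the two conditions met; inactive means the rest.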

Amino acid sequences for entries named in this document (tags omitted).
UniProt P13346, whole entry: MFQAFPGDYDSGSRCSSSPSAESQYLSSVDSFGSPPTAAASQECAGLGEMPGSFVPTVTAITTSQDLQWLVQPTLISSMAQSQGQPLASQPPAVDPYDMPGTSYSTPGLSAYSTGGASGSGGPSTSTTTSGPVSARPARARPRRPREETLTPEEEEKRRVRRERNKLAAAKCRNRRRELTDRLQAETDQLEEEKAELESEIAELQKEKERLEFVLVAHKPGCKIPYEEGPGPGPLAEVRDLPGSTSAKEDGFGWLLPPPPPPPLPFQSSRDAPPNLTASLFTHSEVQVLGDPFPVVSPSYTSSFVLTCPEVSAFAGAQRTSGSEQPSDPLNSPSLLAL

target: Protein FosB (Mus musculus) (UniProt P13346); experiment: activators of delta FosB homodimer, primary screen, biochemical, fluorescence polarization, TAMRA-CDK5 oligo, single point (AID 493131); details: purified delta FosB, at 25 µM, stronger effect = higher value, percent of positive-control signal above neutral wells;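 further: fluorescence polarization rise as delta FosB binds a TAMRA Cdk5 AP-1 oligo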

Structure (SMILES) | activation
CCCOc1ccc(NP(C)(=O)Oc2ccc(Cl)cc2)cc1 (stereo not given) | inactive: -6.47%
CP(=O)(Nc1ccc(SC(F)(F)F)cc1)Oc1ccccc1 (stereo not given) | inactive: -5.03%
COc1ccccc1OP(C)(=O)Nc1c(C)cccc1C (stereo not given) | inactive: -8.54%
CN1CCCCC1COC(=O)C1(O)c2ccccc2CCc2ccccc21 (stereo not given) | inactive: -2.79%
CC1=C2N=C(C=C3N=C(C(C)=C4[N-][C@@](C)([C@@H]5N=C1[C@](C)(CCC(=O)NC[C@@H](C)OP(=O)([O-])O[C@H]1[C@@H](O)[C@@H](n6cnc7cc(C)c(C)cc76)O[C@@H]1CO)[C@H]5CC(N)=O)[C@@](C)(CC(N)=O)[C@@H]4CCC(N)=O)[C@@](C)(CC(N)=O)[C@@H]3CCC(N)=O)C(C)(C)[C@@H]2CCC(N)=O.[C-]#N.[Co+3] | inactive: 1.05%
O=[N+]([O-])c1cc([N+](=O)[O-])c(Nc2nnnn2CCO)c([N+](=O)[O-])c1 | inactive: 2.39%
CCOC(=O)C(CC)C1=NC(C)(C)Cc2ccccc21.O=[N+]([O-])c1cc([N+](=O)[O-])c(O)c([N+](=O)[O-])c1 (stereo not given) | inactive: 1.37%
Cc1nc2ccc3ccccc3c2s1.O=[N+]([O-])c1cc([N+](=O)[O-])c(O)c([N+](=O)[O-])c1 | inactive: -2.96%
O=[N+]([O-])c1cc([N+](=O)[O-])c(-c2cnn(-c3ccccc3)c2)c([N+](=O)[O-])c1 | inactive: -8.62%
O=[N+]([O-])c1cc([N+](=O)[O-])c(-n2nnc3ccccc32)c([N+](=O)[O-])c1 | inactive: -3.64%
Cc1ccc(C)c(NP(C)(=O)Oc2ccccc2)c1 (stereo not given) | inactive: -3.65%
Cc1cc(C)cc(OP(C)(=O)Nc2ccccn2)c1 (stereo not given) | inactive: 5.81%
CP(=O)(Nc1cccc(Br)c1)Oc1ccccc1 (stereo not given) | inactive: -3.72%
CCOC(=O)c1ccc(NP(C)(=O)Oc2cc(C)cc(C)c2)cc1 (stereo not given) | inactive: -4.47%
Cc1cc(C)cc(OP(C)(=O)Nc2ccc(C)cc2C)c1 (stereo not given) | inactive: -0.107%
COc1ccccc1OP(C)(=O)Nc1cccc(Br)c1 (stereo not given) | inactive: -1.43%
CC1=NCCc2c1[nH]c1ccccc21.O=[N+]([O-])c1cc([N+](=O)[O-])c(O)c([N+](=O)[O-])c1 | inactive: 5.3%
O=C(O)c1cccc(Nc2c([N+](=O)[O-])cc([N+](=O)[O-])cc2[N+](=O)[O-])c1 | inactive: -0.652%
Cc1cc(C)cc(OP(C)(N)=O)c1 (stereo not given) | inactive: 5.15%
COc1ccccc1OP(C)(=O)Nc1cc(Cl)ccc1C (stereo not given) | inactive: 3.14%
COc1ccc(OP(C)(=O)Nc2cccc(F)c2)cc1 (stereo not given) | inactive: -2.46%
COc1ccccc1OP(C)(=O)Nc1ccc(C)cc1 (stereo not given) | inactive: -3.58%
Cc1ccc(NP(C)(=O)Oc2ccccc2)c(C)c1 (stereo not given) | inactive: 1.13%

Structure (SMILES) | activation
CCOC(=O)c1ccc(NP(C)(=O)Oc2ccccc2)cc1 (stereo not given) | inactive: -3.52%
O=[N+]([O-])c1ccc2c(c1)C=Nc1ccccc1O2 | inactive: 0.816%
CC(C)(C)c1ccc(OP(C)(=O)Nc2ccc(SC(F)(F)F)cc2)cc1 (stereo not given) | inactive: -3.02%
Cc1cccc(C)c1OP(C)(N)=O (stereo not given) | inactive: 5.37%
O=[N+]([O-])c1cc([N+](=O)[O-])c(Nc2cccnc2)c([N+](=O)[O-])c1 | inactive: -0.165%
CCN(CC)CCCOC(=O)C(O)(c1ccccc1)c1ccccc1 | inactive: -1.99%
CP(=O)(Nc1ccccn1)Oc1ccc(Cl)cc1 (stereo not given) | inactive: 2.21%
CCOC(=O)c1ccc(NP(C)(=O)Oc2ccc(OC)cc2)cc1 (stereo not given) | inactive: -13.8%
CCOP(C)(=S)SCC(=O)NC(C)C(=O)O (stereo not given) | inactive: -4.39%
CP(=O)(NC(=O)Nc1ccccc1)Oc1ccccc1 (stereo not given) | inactive: 4.84%
CCc1ccc(OP(C)(=O)N2CCN(c3ccc([N+](=O)[O-])cc3)CC2)cc1 (stereo not given) | inactive: -11.9%
Cc1cc(C)cc(OP(C)(=O)Nc2ccc(SC(F)(F)F)cc2)c1 (stereo not given) | inactive: 1.54%
Cc1cccc(C)c1OP(C)(=O)Nc1ccc(SC(F)(F)F)cc1 (stereo not given) | inactive: -0.134%
CP(=O)(Oc1ccccc1)OC(c1ccccc1)C(F)(F)F (stereo not given) | inactive: -5.05%
CP(=O)(Nc1ccccc1Br)Oc1ccccc1 (stereo not given) | inactive: -0.981%
COc1ccccc1OP(C)(=O)Nc1ccccc1 (stereo not given) | inactive: -0.514%
CP(=S)(Nn1cnnc1)Oc1ccccc1 (stereo not given) | inactive: -2.5%
CCOC(=O)c1ccc(NP(C)(=O)Oc2ccc(Cl)cc2)cc1 (stereo not given) | inactive: -7.08%
CP(=O)(OC12CC3CC(CC(C3)C1)C2)OC12CC3CC(CC(C3)C1)C2 | inactive: -7.01%
CN(C)C(=O)c1c([N+](=O)[O-])cc([N+](=O)[O-])cc1[N+](=O)[O-] | inactive: -1.07%
COc1ccccc1OP(C)(=O)Nc1ccccc1Br (stereo not given) | inactive: -17.1%
CC(C)(C)c1ccc(OP(C)(=O)O)cc1 | inactive: -17.6%
CP(=O)(Nc1ccc(Cl)cc1)Oc1ccc(F)cc1 (stereo not given) | inactive: 0.979%

Structure (SMILES) | activation
COc1ccccc1OP(C)(=O)Nc1c(C)n(C)n(-c2ccccc2)c1=O (stereo not given) | inactive: -5.32%
O=C(OCCCN1CCCC1)C(O)(c1ccccc1)C1CCCCC1 (stereo not given) | inactive: -4.73%
CP(=O)(Oc1ccccc1)N1CCOC1=O (stereo not given) | inactive: -1.56%
CCc1ccc(OP(C)(=O)Nc2cccnc2)cc1 (stereo not given) | inactive: -7.58%
CCN(CC)CC(O)COC(=O)C(O)(c1ccccc1)C1CCCCC1 (stereo not given) | inactive: 0.692%
COc1ccc(OP(C)(=O)Nc2ccc(Br)cc2)cc1 (stereo not given) | inactive: -0.834%
CP(=O)(Nc1ccccn1)Oc1ccccc1 (stereo not given) | inactive: -3.08%
COc1ccccc1OP(C)(=O)Nc1ccc(C)cc1C (stereo not given) | inactive: 5.03%
CCc1ccc(OP(C)(=O)O)cc1 | inactive: -0.12%
Cc1c(NP(C)(=O)Oc2ccc(C(C)C)cc2)c(=O)n(-c2ccccc2)n1C (stereo not given) | inactive: -8.46%
O=[N+]([O-])c1cc([N+](=O)[O-])c(Nc2ccccn2)c([N+](=O)[O-])c1 | inactive: 4.4%
COc1ccc(OP(C)(=O)Nc2ccccn2)cc1 (stereo not given) | inactive: -0.23%
CN(C)CCOC(=O)C(O)(c1ccccc1)C1CCCC1 (stereo not given) | inactive: -4.35%
COc1ccccc1OP(C)(=O)Nc1ccc(Br)cc1 (stereo not given) | inactive: -3.83%
CP(=O)(Nc1ccc(Cl)cc1Cl)Oc1ccccc1 (stereo not given) | inactive: 2.08%
CCCCCCCCCCCCCCCC1C[N+](C)(C)CCOP(C)(=O)O1 (stereo not given) | inactive: -115%
CP(=O)(OCCOc1ccccc1)OCCOc1ccccc1 | inactive: 4.2%
COc1ccccc1OP(C)(=O)Nc1ccc(C)c(C)c1 (stereo not given) | inactive: 0.942%
COc1ccc(OP(C)(=O)Nc2ccccc2Br)cc1 (stereo not given) | inactive: 2.02%
O=C1C(O)=C([N+](=O)[O-])C(=O)C(O)=C1[N+](=O)[O-] | inactive: 3.09%
Cc1cc(C)cc(OP(C)(=O)Nc2cccc(C(F)(F)F)c2)c1 (stereo not given) | inactive: -3.97%
CP(=O)(Nc1ccccc1)Oc1ccc(F)cc1 (stereo not given) | inactive: 6.5%
O=[N+]([O-])c1cc([N+](=O)[O-])c(OC2CCCCC2O)c([N+](=O)[O-])c1 (stereo not given) | inactive: -9.85%

Structure (SMILES) | activation
CCCCCOc1ccc(NP(C)(=O)Oc2ccc(Cl)cc2Cl)cc1 (stereo not given) | inactive: -13.4%
Cc1c([N+](=O)[O-])cc([N+](=O)[O-])c(Br)c1[N+](=O)[O-] | inactive: 3.11%
CCN(CC)CCCOC(=O)C(O)(c1ccccc1)C1CCCCC1 (stereo not given) | inactive: -13.8%
CCOC(=O)c1ccc(NP(C)(=O)Oc2ccc(F)cc2)cc1 (stereo not given) | inactive: -0.689%
COc1ccc(OP(C)(=O)Nc2ccc(SC(F)(F)F)cc2)cc1 (stereo not given) | inactive: -10.8%
COc1ccc2c(c1O)-c1c(O)c(OC)cc3c1[C@H](C2)[N+](C)(C)CC3.O=[N+]([O-])c1cc([N+](=O)[O-])c([O-])c([N+](=O)[O-])c1[O-] | inactive: -3.14%
O=C(OC1CN2CCC1CC2)c1ccc([N+](=O)[O-])cc1 (stereo not given) | inactive: -4.72%
O=C(OCCN1CCN(CCOCc2ccccc2)CC1)C(O)(c1ccccc1)c1ccccc1 | inactive: -3.99%
CP(=O)(Nc1ccccc1F)Oc1ccccc1 (stereo not given) | inactive: 1.57%
CC(C)c1ccc(OP(C)(=O)Nc2ccc(SC(F)(F)F)cc2)cc1 (stereo not given) | inactive: -9.67%
Cc1ccccc1NP(C)(=O)Nc1ccccc1C | inactive: 2.69%
CP(=O)(Nc1ccc2c(c1)OCCO2)Oc1ccccc1 (stereo not given) | inactive: -5.4%
CCOP(C)(=S)SCC(=O)NC(C)(CC)C(=O)O (stereo not given) | inactive: -5.51%
CP(=O)(Nc1ccc(SC(F)(F)F)cc1)Oc1ccc(F)cc1 (stereo not given) | inactive: -4.45%
Cc1c(C(c2ccc3c(c2)OCO3)c2c(C)n(C)n(-c3ccccc3)c2=O)c(=O)n(-c2ccccc2)n1C.O=[N+]([O-])c1cc([N+](=O)[O-])c(O)c([N+](=O)[O-])c1 | inactive: 3.34%
O=[N+]([O-])c1ccc(OP2(=O)COCCO2)cc1 (stereo not given) | inactive: -2.22%
Cc1cc(-c2cccc3ccccc23)c(C)cn1.O=[N+]([O-])c1cc([N+](=O)[O-])c(O)c([N+](=O)[O-])c1 | inactive: -8.54%
O=[N+]([O-])c1cc([N+](=O)[O-])c(NCC2CCS(=O)(=O)C2)c([N+](=O)[O-])c1 (stereo not given) | inactive: 2.49%
CN(C)CCOC(=O)C(O)(c1ccccc1)C1CCCCC1 (stereo not given) | inactive: -0.288%
COc1ccc(NP(C)(=O)Oc2ccccc2OC)cc1 (stereo not given) | inactive: -3.53%
COc1ccc(OP(C)(=O)Nc2cccc(Br)c2)cc1 (stereo not given) | inactive: -2.54%
